{"source": "patent US8791050B2", "about": "“Herbicidal compositions” (priority 1998, dated 2014)", "test_system": "rice", "experiment": "Selectivity: damage to rice, field trial", "type": "in vivo", "conditions": "Table 3 field trial, post-emergence 2-4-leaf stage, scoring 28 days after application", "method": "The damage and development of all above-ground parts of the plants were recorded. […] The scores of in each case 4 plots were averaged.\nCrop plants were grown outdoors on plots under natural outdoor conditions, and seeds or rhizome pieces of typical harmful plants were laid out or the natural weed growth was utilized."}
{"substance": "oxadiargyl [(B4.9)]", "values": [{"measurement": "Damage (in %) to rice", "setting": "25 g of AS/ha", "value": 22, "unit": "%"}, {"measurement": "Damage (in %) to rice", "setting": "50 g of AS/ha", "value": 23, "unit": "%"}, {"measurement": "Damage (in %) to rice", "setting": "100 g of AS/ha", "value": 22, "unit": "%"}]}
